Target: RORc ligand binding domain (Homo sapiens (Human), UniProt P51449)
Assay: In Vitro RORc Ligand Binding Assay
Conditions: radioligand 25-[3H]hydroxycholesterol

The chains behind the UniProt entries cited, without tags or fusion partners. Residues count along the entry.
UniProt P51449, 269-508: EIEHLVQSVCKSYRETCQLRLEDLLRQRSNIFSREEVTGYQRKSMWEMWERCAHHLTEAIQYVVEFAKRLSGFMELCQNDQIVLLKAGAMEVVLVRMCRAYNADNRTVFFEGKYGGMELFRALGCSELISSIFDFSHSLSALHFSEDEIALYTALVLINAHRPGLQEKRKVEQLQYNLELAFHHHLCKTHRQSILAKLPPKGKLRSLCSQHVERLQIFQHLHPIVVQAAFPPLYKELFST

Compound | IC50
CCN(C[C@@]12CC[C@@H](c3cc(-c4c(F)cccc4F)nnc31)C2(C)C)C(=O)c1ccc(-c2ncn[nH]2)cc1 [Compound 105, N-(((5R,8S)-3-(2,6-difluorophenyl)-9,9-dimethyl-5,6,7,8-tetrahydro-5,8-methanocinnolin-8-yl)methyl)-N-ethyl-4-(1H-1,2,4-triazol-5-yl)benzamide] | 0.0555 µM
CCN(C[C@@]12CC[C@@H](c3cc(-c4c(F)cccc4F)nnc31)C2(C)C)C(=O)C1CCN(C(N)=O)CC1 [Compound 108, N4-(((5R,8S)-3-(2,6-difluorophenyl)-9,9-dimethyl-5,6,7,8-tetrahydro-5,8-methanocinnolin-8-yl)methyl)-N4-ethylpiperidine-1,4-dicarboxamide] | 0.163 µM
CCN(C[C@@]12CC[C@@H](c3cc(-c4c(F)cccc4F)nnc31)C2(C)C)C(=O)C1CCS(=O)(=O)C1 (stereo partly drawn) [Compound 109, N-(((5R,8S)-3-(2,6-difluorophenyl)-9,9-dimethyl-5,6,7,8-tetrahydro-5,8-methanocinnolin-8-yl)methyl)-N-ethyltetrahydrothiophene-3-carboxamide 1,1-dioxide] | 0.07 µM
CCN(C[C@@]12CC[C@@H](c3cc(-c4c(F)cccc4F)nnc31)C2(C)C)C(=O)c1ccc(-n2ccnc2)nc1 [Compound 111, N-(((5R,8S)-3-(2,6-difluorophenyl)-9,9-dimethyl-5,6,7,8-tetrahydro-5,8-methanocinnolin-8-yl)methyl)-N-ethyl-6-(1H-imidazol-1-yl)nicotinamide] | 0.0478 µM
CCN(C[C@@]12CC[C@@H](c3cc(-c4c(F)cccc4F)nnc31)C2(C)C)C(=O)c1nc(N)n[nH]1 [Compound 113, 3-amino-N-(((5R,8S)-3-(2,6-difluorophenyl)-9,9-dimethyl-5,6,7,8-tetrahydro-5,8-methanocinnolin-8-yl)methyl)-N-ethyl-1H-1,2,4-triazole-5-carboxamide] | 0.0564 µM
CCN(C[C@@]12CC[C@@H](c3cc(-c4c(F)cccc4F)nnc31)C2(C)C)S(=O)(=O)c1c(C)noc1C [Compound 116, N-(((5R,8S)-3-(2,6-difluorophenyl)-9,9-dimethyl-5,6,7,8-tetrahydro-5,8-methanocinnolin-8-yl)methyl)-N-ethyl-3,5-dimethylisoxazole-4-sulfonamide] | 0.0092 µM
CCN(C[C@@]12CC[C@@H](c3cc(-c4c(F)cccc4F)nnc31)C2(C)C)S(=O)(=O)c1ccc(F)cc1F [Compound 122, N-(((5R,8S)-3-(2,6-difluorophenyl)-9,9-dimethyl-5,6,7,8-tetrahydro-5,8-methanocinnolin-8-yl)methyl)-N-ethyl-2,4-difluorobenzenesulfonamide] | 0.0091 µM
CCN(C[C@@]12CC[C@@H](c3cc(-c4c(F)cccc4F)nnc31)C2(C)C)S(=O)(=O)C1CC1 [Compound 128, N-(((5R,8S)-3-(2,6-difluorophenyl)-9,9-dimethyl-5,6,7,8-tetrahydro-5,8-methanocinnolin-8-yl)methyl)-N-ethylcyclopropanesulfonamide] | 0.0073 µM
CCN(C[C@@]12CC[C@@H](c3cc(-c4c(F)cccc4F)nnc31)C2(C)C)S(=O)(=O)c1ncn[nH]1 [Compound 129, N-(((5R,8S)-3-(2,6-difluorophenyl)-9,9-dimethyl-5,6,7,8-tetrahydro-5,8-methanocinnolin-8-yl)methyl)-N-ethyl-1H-1,2,4-triazole-5-sulfonamide] | 0.0579 µM
CCN(C[C@@]12CC[C@@H](c3cc(-c4c(F)cccc4F)nnc31)C2(C)C)S(=O)(=O)c1cccnc1 [Compound 132, N-(((5R,8S)-3-(2,6-difluorophenyl)-9,9-dimethyl-5,6,7,8-tetrahydro-5,8-methanocinnolin-8-yl)methyl)-N-ethylpyridine-3-sulfonamide] | 0.0241 µM
CCN(C[C@@]12CC[C@@H](c3cc(-c4c(F)cccc4F)nnc31)C2(C)C)S(=O)(=O)Cc1ccc(F)cc1F [Compound 133, 1-(2,4-difluorophenyl)-N-(((5R,8S)-3-(2,6-difluorophenyl)-9,9-dimethyl-5,6,7,8-tetrahydro-5,8-methanocinnolin-8-yl)methyl)-N-ethylmethanesulfonamide] | 0.0026 µM
CCN(C[C@@]12CC[C@@H](c3cc(-c4c(F)cccc4F)nnc31)C2(C)C)S(=O)(=O)c1cn(C(F)F)nc1C [Compound 135, 1-(difluoromethyl)-N-(((5R,8S)-3-(2,6-difluorophenyl)-9,9-dimethyl-5,6,7,8-tetrahydro-5,8-methanocinnolin-8-yl)methyl)-N-ethyl-3-methyl-1H-pyrazole-4-sulfonamide] | 0.011 µM
CCN(C[C@@]12CC[C@@H](c3cc(-c4c(F)cccc4F)nnc31)C2(C)C)S(=O)(=O)Cc1ccncc1 [Compound 144, N-(((5R,8S)-3-(2,6-difluorophenyl)-9,9-dimethyl-5,6,7,8-tetrahydro-5,8-methanocinnolin-8-yl)methyl)-N-ethyl-1-(pyridin-4-yl)methanesulfonamide] | 0.0108 µM
CCN(C[C@@]12CC[C@@H](c3cc(-c4c(F)cccc4F)nnc31)C2(C)C)S(=O)(=O)Cc1ccccn1 [Compound 145, N-(((5R,8S)-3-(2,6-difluorophenyl)-9,9-dimethyl-5,6,7,8-tetrahydro-5,8-methanocinnolin-8-yl)methyl)-N-ethyl-1-(pyridin-2-yl)methanesulfonamide] | 0.0092 µM
CCN(C[C@@]12CC[C@@H](c3cc(-c4c(F)cccc4F)nnc31)C2(C)C)S(=O)(=O)c1cc(F)ccc1F [Compound 146, N-(((5R,8S)-3-(2,6-difluorophenyl)-9,9-dimethyl-5,6,7,8-tetrahydro-5,8-methanocinnolin-8-yl)methyl)-N-ethyl-2,5-difluorobenzenesulfonamide] | 0.0079 µM
CCN(C[C@@]12CC[C@@H](c3cc(-c4c(F)cccc4F)nnc31)C2(C)C)S(=O)(=O)Cc1cc(F)ccc1F [Compound 149, 1-(2,5-difluorophenyl)-N-(((5R,8S)-3-(2,6-difluorophenyl)-9,9-dimethyl-5,6,7,8-tetrahydro-5,8-methanocinnolin-8-yl)methyl)-N-ethylmethanesulfonamide] | 0.0029 µM
CCN(C[C@@]12CC[C@@H](c3cc(-c4c(F)cccc4F)nnc31)C2(C)C)S(=O)(=O)c1cnoc1C [Compound 151, N-(((5R,8S)-3-(2,6-difluorophenyl)-9,9-dimethyl-5,6,7,8-tetrahydro-5,8-methanocinnolin-8-yl)methyl)-N-ethyl-5-methylisoxazole-4-sulfonamide] | 0.0259 µM
CCN(C[C@@]12CC[C@@H](c3cc(-c4c(F)cccc4F)nnc31)C2(C)C)C(=O)c1cc(O)ccn1 [Compound 155, N-(((5R,8S)-3-(2,6-difluorophenyl)-9,9-dimethyl-5,6,7,8-tetrahydro-5,8-methanocinnolin-8-yl)methyl)-N-ethyl-4-hydroxypicolinamide] | 0.0969 µM
CCN(C[C@@]12CC[C@@H](c3cc(-c4c(F)cccc4F)nnc31)C2(C)C)S(=O)(=O)Cc1ccccc1 [Compound 159, N-(((5R,8S)-3-(2,6-difluorophenyl)-9,9-dimethyl-5,6,7,8-tetrahydro-5,8-methanocinnolin-8-yl)methyl)-N-ethyl-1-phenylmethanesulfonamide] | 0.0035 µM
CCN(C[C@@]12CC[C@@H](c3cc(-c4c(F)cccc4F)nnc31)C2(C)C)C(=O)Cc1n[nH]c(=O)[nH]1 [Compound 162, N-(((5R,8S)-3-(2,6-difluorophenyl)-9,9-dimethyl-5,6,7,8-tetrahydro-5,8-methanocinnolin-8-yl)methyl)-N-ethyl-2-(5-oxo-4,5-dihydro-1H-1,2,4-triazol-3-yl)acetamide] | 0.0193 µM
CCN(C[C@@]12CC[C@@H](c3cc(-c4c(F)cccc4F)nnc31)C2(C)C)C(=O)c1ncco1 [Compound 165, N-(((5R,8S)-3-(2,6-difluorophenyl)-9,9-dimethyl-5,6,7,8-tetrahydro-5,8-methanocinnolin-8-yl)methyl)-N-ethyloxazole-2-carboxamide] | 0.0046 µM
CCN(C[C@@]12CC[C@@H](c3cc(-c4c(F)cccc4F)nnc31)C2(C)C)C(=O)CN1CCS(=O)(=O)CC1 [Compound 170, N-(((5R,8S)-3-(2,6-difluorophenyl)-9,9-dimethyl-5,6,7,8-tetrahydro-5,8-methanocinnolin-8-yl)methyl)-2-(1,1-dioxidothiomorpholino)-N-ethylacetamide] | 0.0619 µM
CCN(C[C@@]12CC[C@@H](c3cc(-c4c(F)cccc4F)nnc31)C2(C)C)C(=O)c1ccc(CC#N)nn1 [Compound 178, 6-(cyanomethyl)-N-(((5R,8S)-3-(2,6-difluorophenyl)-9,9-dimethyl-5,6,7,8-tetrahydro-5,8-methanocinnolin-8-yl)methyl)-N-ethylpyridazine-3-carboxamide] | 0.0937 µM
CCN(C[C@@]12CC[C@@H](c3cc(-c4c(F)cccc4F)nnc31)C2(C)C)C(=O)CN1CCC(O)CC1 [Compound 179, N-(((5R,8S)-3-(2,6-difluorophenyl)-9,9-dimethyl-5,6,7,8-tetrahydro-5,8-methanocinnolin-8-yl)methyl)-N-ethyl-2-(4-hydroxypiperidin-1-yl)acetamide] | 0.306 µM
CC1(C)[C@H]2CC[C@]1(CN(CC(F)F)C(=O)c1coc(CS(C)(=O)=O)n1)c1nnc(-c3c(F)cccc3F)cc12 [Compound 181, N-(2,2-difluoroethyl)-N-[[(1S,8R)-5-(2,6-difluorophenyl)-11,11-dimethyl-3,4-diazatricyclo[6.2.1.02,7]undeca-2(7),3,5-trien-1-yl]methyl]-2-(methylsulfonylmethyl)oxazole-4-carboxamide] | 0.045 µM
CC1(C)[C@H]2CC[C@]1(CN(CC1CC1)C(=O)c1coc(CS(C)(=O)=O)n1)c1nnc(-c3c(F)cccc3F)cc12 [Compound 183, N-(cyclopropylmethyl)-N-[[(1S,8R)-5-(2,6-difluorophenyl)-11,11-dimethyl-3,4-diazatricyclo[6.2.1.02,7]undeca-2(7),3,5-trien-1-yl]methyl]-2-(methylsulfonylmethyl)oxazole-4-carboxamide] | 0.057 µM
CCN(C[C@@]12CC[C@@H](c3cc(-c4c(F)cccc4F)nnc31)C2(C)C)C(=O)c1ccc(CS(C)(=O)=O)nn1 [Compound 188, N-[[(1S,8R)-5-(2,6-difluorophenyl)-11,11-dimethyl-3,4-diazatricyclo[6.2.1.02,7]undeca-2,4,6-trien-1-yl]methyl]-N-ethyl-6-(methylsulfonylmethyl)pyridazine-3-carboxamide] | 0.0045 µM

Reference: US10280144B2, “Pyridazine derivatives as RORc modulators” (Genentech, Inc., priority 2015, dated 2019)
